Here are results for two compounds from paper PMC5973797 (Cell chemical biology, 2018).

Chains of the proteins cited; added tags and fusions are not shown. Lines headed by an entry give the natural chain unless they say otherwise; changes in a name come on top.
UniProt P49759: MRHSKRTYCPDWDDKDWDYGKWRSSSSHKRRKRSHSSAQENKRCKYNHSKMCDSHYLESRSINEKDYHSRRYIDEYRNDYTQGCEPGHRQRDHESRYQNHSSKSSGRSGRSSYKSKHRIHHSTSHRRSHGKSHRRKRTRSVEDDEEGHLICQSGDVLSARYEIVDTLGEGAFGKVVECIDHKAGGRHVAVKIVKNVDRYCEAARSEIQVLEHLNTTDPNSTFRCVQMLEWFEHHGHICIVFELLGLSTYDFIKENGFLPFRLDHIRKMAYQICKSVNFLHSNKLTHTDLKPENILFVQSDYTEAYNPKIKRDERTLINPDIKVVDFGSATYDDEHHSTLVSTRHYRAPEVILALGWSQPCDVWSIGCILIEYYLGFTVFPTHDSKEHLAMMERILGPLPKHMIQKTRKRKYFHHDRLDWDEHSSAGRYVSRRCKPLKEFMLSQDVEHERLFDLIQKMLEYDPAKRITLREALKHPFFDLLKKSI

Each structure is given as a SMILES string. Bounds are passed on as bounds.

The subject of assay [1] is SR protein phosphorylation in HeLa cells. As to the kind of experiment: SR protein phosphorylation western blot with mAb104. Type of assay: cell-based. Conditions: for SR protein phosphorylation: 16 hr. (In general: A western blot detects proteins with antibodies after separation by electrophoresis.)
In a further assay the test system is kinome of HeLa cells. The following applies: 5 μM.
In another assay the target is CLK1 (Homo sapiens, UniProt P49759). As to the kind of experiment: biochemical.

Turning to `CCc1cc2c(cc1-c1cccc(S(=O)(=O)F)c1)C(C)(C)c1[nH]c3cc(C#N)ccc3c1C2=O` [SRPKIN-1, 3-(3-cyano-9-ethyl-6,6-dimethyl-11-oxo-6,11-dihydro-5H-benzo[b]carbazol-8-yl)benzenesulfonyl fluoride], the SR protein phosphorylation result in assay [1] (200 nM, without washout) was “significantly reduced”. Further, in assay [1] (200 nM, after washout), the “SR protein phosphorylation after washout” value is listed as “continued to show the inhibitory effect”. The “kinome-wide selectivity, KiNativ before washout” value with kinome of HeLa cells (6 hr) is “striking selectivity for SRPK1”. Moreover, in the assay on kinome of HeLa cells (after washout), the “kinome-wide selectivity, KiNativ after washout” value was “more striking”. The half-maximal inhibitory concentration (IC50) against CLK1 was above 10 µM.
In the case of `O=C(Nc1cc(C(F)(F)F)ccc1N1CCCCC1)c1ccncc1` [SRPIN340, N-(2-(piperidin-1-yl)-5-(trifluoromethyl)phenyl)isonicotinamide, reference compound], the SR protein phosphorylation result in assay [1] (10 μM) was “minimal effect”.

One may read the IC50 as the point on the concentration scale where inhibition reaches its midpoint. A higher IC50 goes with weaker potency.
